Patent US7612034B2, “Treatment of subnormal bone mineral density” (Genelabs Technologies, Inc., priority 1999, dated 2009)

Experiment: Oral uptake and absorption of DHEA polymorph preparations
Conditions: oral administration

Compound	uptake by the GI tract
C[C@]12CC[C@H](O)CC1=CC[C@@H]1[C@@H]2CC[C@]2(C)C(=O)CC[C@@H]12 [DHEA form I, dehydroepiandrosterone]	good uptake by the GI tract
C[C@]12CC[C@H](O)CC1=CC[C@@H]1[C@@H]2CC[C@]2(C)C(=O)CC[C@@H]12 [DHEA form II, dehydroepiandrosterone]	good uptake by the GI tract
